# Yeast mating assay 2: variants of the scFv Ab-91

Antigen: PDVDLGDISGINAS, a 14-residue peptide of the SARS-CoV-2 spike HR2 region.

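The starting antibody came from a phage panning campaign against this peptide. AAYL51 was designed without a model: most single CDR substitutions and a random sample of double and triple ones. The assay is AlphaSeq: two haploid yeast populations carry antibody and antigen on their surface. The frequency of each diploid, read from paired DNA barcodes, reflects how well the two displayed proteins bind. The ratio of observed to expected reads was calibrated, replicate by replicate, on BCL2-family standards whose Kd was known from biolayer interferometry. There are three technical replicates.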

Parent: Ab-91, a human scFv built as VL, three GGGGS repeats, VH. Only the CDRs of the heavy chain vary.
VL: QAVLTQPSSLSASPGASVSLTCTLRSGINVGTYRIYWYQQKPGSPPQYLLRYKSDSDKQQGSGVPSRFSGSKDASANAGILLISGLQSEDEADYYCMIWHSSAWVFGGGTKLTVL
VH: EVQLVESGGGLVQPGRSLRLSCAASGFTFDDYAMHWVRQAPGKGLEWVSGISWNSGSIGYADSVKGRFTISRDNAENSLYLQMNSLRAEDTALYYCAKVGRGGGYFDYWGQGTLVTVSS

Positions count from residue 1 of the parent VH; F29S puts S in place of F.
This list gathers variants with a substitution at F29 (VH, numbered from residue 1).
The Kd shown is the geometric mean over detected replicates; a lower Kd is a better binder.
"nd" means that the variant was in the library but no mating with the target was seen in any replicate; the authors take this as a sign of poor binding, and no number exists.
Nonspecific signal, from three strains lacking the peptide, appeared in 21% of pairings of library AAYL51, centred on 34 µM (5% of these signals below 1.8 µM); values are not corrected for it.

The variant F29S A33K V99N showed 330 µM (2 of 3 replicates).
The variant F29V Y32A A33N showed 4.9 µM (1 of 3 replicates).
The variant F29R I58W R101P showed nd (0 of 3 replicates).
The variant F29D G100Q F106I showed 17 µM (1 of 3 replicates).
The variant F27Y F29T Y105E showed 130 µM (1 of 3 replicates).
The variant F29D S63Q G104S showed nd (0 of 3 replicates).
The variant F29V S57L Y108F showed nd (0 of 3 replicates).
The variant F29R M34D G103R showed 22 µM (2 of 3 replicates).
The variant F29E S55Y D62C showed nd (0 of 3 replicates).
The variant F29R S52C G56A showed 83 µM (2 of 3 replicates).
The variant F29N D31Q G102Y showed 300 nM (3 of 3 replicates).
The variant F29M S52R showed nd (0 of 3 replicates).
The variant F29Q S63C G104F showed 23 µM (3 of 3 replicates).
The variant F29N H35E G102Y showed nd (0 of 3 replicates).
The variant F29G I58S G103I showed nd (0 of 3 replicates).
The variant F29P S57P G59M showed nd (0 of 3 replicates).
The variant G26D F29R H35R showed 2.6 mM (1 of 3 replicates).
The variant F29K S57P V99D showed 1.8 µM (1 of 3 replicates).
The variant G26R F27K F29V showed 940 nM (1 of 3 replicates).
The variant F29C G50N G104D showed nd (0 of 3 replicates).
The variant F29P N54M I58S showed nd (0 of 3 replicates).
The variant F29T M34L G56M showed nd (0 of 3 replicates).
The variant F29E D31F G59I showed 2.4 µM (1 of 3 replicates).
The variant F27D F29E showed 26 µM (2 of 3 replicates).
The variant F29E G56E Y60S showed nd (0 of 3 replicates).
The variant F29Q Y105R D107C showed 11 µM (1 of 3 replicates).
The variant F29I showed 49 nM (3 of 3 replicates).
The variant F29D S57K K65A showed 470 µM (2 of 3 replicates).
The variant F27E F29D G100C showed nd (0 of 3 replicates).
The variant F29A I51D G100L showed 56 µM (1 of 3 replicates).
The variant F29C D62R G104Y showed nd (0 of 3 replicates).
The variant F29G A61W V99T showed 110 µM (2 of 3 replicates).
The variant F29V H35A D107P showed 1.5 mM (1 of 3 replicates).
The variant F29P S63C G103D showed 7.3 µM (1 of 3 replicates).
The variant F29K I58M D62V showed 21 µM (1 of 3 replicates).
The variant F29C I51M V64L showed 190 µM (2 of 3 replicates).
The variant F29A S57W F106L showed nd (0 of 3 replicates).
The variant F29E showed nd (0 of 3 replicates).
The variant G26T T28R F29I showed nd (0 of 3 replicates).
The variant F29H W53S D62R showed nd (0 of 3 replicates).
The variant G26P F29L V64W showed 13 µM (1 of 3 replicates).

From the list, the first 7 with no signal in any replicate:

{"changes": "F29R I58W R101P", "Kd": "nd", "replicates with signal": "0/3"}
{"changes": "F29D S63Q G104S", "Kd": "nd", "replicates with signal": "0/3"}
{"changes": "F29V S57L Y108F", "Kd": "nd", "replicates with signal": "0/3"}
{"changes": "F29E S55Y D62C", "Kd": "nd", "replicates with signal": "0/3"}
{"changes": "F29M S52R", "Kd": "nd", "replicates with signal": "0/3"}
{"changes": "F29N H35E G102Y", "Kd": "nd", "replicates with signal": "0/3"}
{"changes": "F29G I58S G103I", "Kd": "nd", "replicates with signal": "0/3"}

In this assay the parent's reference entry averaged 72 nM; its copy inside this library read 7.5 nM.

Reference: Engelhart et al. 2022, doi:10.1038/s41597-022-01779-4. File: FLAb, binding data.